Values of other authors, collected in publication PMC4368888, “Preclinical to Clinical Translation of CNS Transporter Occupancy of TD-9855, a Novel Norepinephrine and Serotonin Reuptake Inhibitor” (International Journal of Neuropsychopharmacology, 2015).

Protein sequences, listed by entry. Tags and fused reporters are not part of them.
UniProt P23975, whole entry: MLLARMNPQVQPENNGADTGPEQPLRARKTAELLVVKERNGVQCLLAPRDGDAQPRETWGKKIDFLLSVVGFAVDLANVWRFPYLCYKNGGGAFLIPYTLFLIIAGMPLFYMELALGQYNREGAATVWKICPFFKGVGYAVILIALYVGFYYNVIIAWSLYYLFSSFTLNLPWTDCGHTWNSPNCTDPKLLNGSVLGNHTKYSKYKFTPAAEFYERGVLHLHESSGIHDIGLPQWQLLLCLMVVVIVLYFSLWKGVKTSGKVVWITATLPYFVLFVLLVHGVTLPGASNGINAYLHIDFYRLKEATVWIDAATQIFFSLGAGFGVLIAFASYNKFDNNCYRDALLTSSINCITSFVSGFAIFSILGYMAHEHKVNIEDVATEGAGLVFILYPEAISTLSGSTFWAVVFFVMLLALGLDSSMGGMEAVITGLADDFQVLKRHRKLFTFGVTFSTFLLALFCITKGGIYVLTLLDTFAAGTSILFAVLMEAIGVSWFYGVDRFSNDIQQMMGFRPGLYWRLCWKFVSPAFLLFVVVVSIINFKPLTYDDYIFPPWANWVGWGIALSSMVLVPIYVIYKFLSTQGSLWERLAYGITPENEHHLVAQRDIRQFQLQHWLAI

Columns and labels:
SERT and NET = details: in vitro; ref Wu et al., 2008; Tsuruda et al., 2010; cited from earlier work
NET = NET (Homo sapiens, UniProt P23975); details: dose 75mg; ref Sekine et al., 2010; Takano et al., 2014; cited from earlier work

SMILES	functional selectivity for NE (SERT and NET)	NET occupancy (NET)
CCOc1ccccc1O[C@@H](c1ccccc1)[C@@H]1CNCCO1 [esreboxetine]	≥ 10 000 fold	–
CNCCC=C1c2ccccc2CCc2ccccc21 [nortriptyline]	–	~ 50%
